# Permeability data for macrocyclic peptides

Values of Wang et al. 2021, doi:10.1021/acs.jmedchem.1c00775, as listed in CycPeptMPDB.

PAMPA is the parallel artificial membrane permeability assay, which has no cells and reads passive diffusion. Permeability is in 10^-6 cm/s, converted from the database's log10 values; higher is more permeable. Entries marked < or ≤ lay at or below the stated limit.

SMILES	PAMPA (10^-6 cm/s)
CC(C)C[C@@H]1NC(=O)[C@H](Cc2ccccc2)N(C)C(=O)[C@H]2CCCN2C(=O)[C@H](CC(C)C)NC(=O)[C@H](C)N(C)C(=O)[C@H](CC(C)C)NC(=O)[C@H](Cc2ccccc2)N(C)C(=O)[C@H]2CCCN2C(=O)[C@H]([C@@H](C)O)NC(=O)[C@H](C)N(C)C1=O	130
CC(C)C[C@@H]1NC(=O)[C@H](C(C)C)N(C)C(=O)[C@H]2CCCN2C(=O)[C@H](CC(C)C)NC(=O)[C@H](C)N(C)C(=O)[C@H](CC(C)C)NC(=O)[C@H](C(C)C)N(C)C(=O)[C@H]2CCCN2C(=O)[C@H](CC(C)C)NC(=O)[C@H](C)N(C)C1=O	40
CC(C)C[C@@H]1NC(=O)[C@H](C)N(C)C(=O)[C@H](CC(C)C)NC(=O)[C@@H]2CCCN2C(=O)[C@H]2CCCN2C(=O)[C@H](CC(C)C)NC(=O)[C@H](C)N(C)C(=O)[C@H](CC(C)C)NC(=O)[C@H](C(C)C)N(C)C(=O)[C@@H](C)N(C)C1=O	25
CC(C)C[C@@H]1NC(=O)[C@H](C)N(C)C(=O)[C@H](CC(C)C)NC(=O)[C@H](C)N(C)C(=O)[C@@H](C)N(C)C(=O)[C@H](CC(C)C)NC(=O)[C@H](C)N(C)C(=O)[C@H](CC(C)C)NC(=O)[C@H](C)N(C)C(=O)[C@@H](C)N(C)C1=O	100
CC(C)C[C@@H]1NC(=O)[C@H](C)N(C)C(=O)[C@H](CC(C)C)NC(=O)[C@H](C(C)C)N(C)C(=O)[C@@H](C)N(C)C(=O)[C@H](CC(C)C)NC(=O)[C@H](C)N(C)C(=O)[C@H](CC(C)C)NC(=O)[C@H](C(C)C)N(C)C(=O)[C@@H](C)N(C)C1=O	16
CC(C)C[C@@H]1NC(=O)[C@H](C)N(C)C(=O)[C@H]2CCCN2C(=O)[C@H](CC(C)C)NC(=O)[C@H](C)N(C)C(=O)[C@H](CC(C)C)NC(=O)[C@H](C)N(C)C(=O)[C@H]2CCCN2C(=O)[C@H](CC(C)C)NC(=O)[C@H](C)N(C)C1=O	25
CC(C)C[C@@H]1NC(=O)[C@H](Cc2ccccc2)N(C)C(=O)[C@H]2CCCN2C(=O)[C@H](CC(C)C)NC(=O)[C@H](C)N(C)C(=O)[C@H]([C@@H](C)O)NC(=O)[C@H](Cc2ccccc2)N(C)C(=O)[C@H]2CCCN2C(=O)[C@H](CC(C)C)NC(=O)[C@H](C)N(C)C1=O	20
CC(C)C[C@@H]1NC(=O)[C@H](Cc2ccccc2)N(C)C(=O)[C@H]2CCCN2C(=O)[C@H](CC(C)C)NC(=O)[C@H](C)N(C)C(=O)[C@H](CC(C)C)NC(=O)[C@H](Cc2ccccc2)N(C)C(=O)[C@H]2CCCN2C(=O)[C@H](CC(C)C)NC(=O)[C@H]([C@@H](C)O)N(C)C1=O	10
CC(C)C[C@@H]1NC(=O)[C@H](C)N(C)C(=O)[C@H](CC(C)C)NC(=O)[C@@H]2CCCN2C(=O)CN(C)C(=O)[C@H](CC(C)C)NC(=O)[C@H](C)N(C)C(=O)[C@H](CC(C)C)NC(=O)[C@@H]2CCCN2C(=O)CN(C)C1=O	0.2
CC(C)C[C@@H]1NC(=O)[C@H]([C@@H](C)O)N(C)C(=O)[C@H]2CCCN2C(=O)[C@H](CC(C)C)NC(=O)[C@H]([C@@H](C)O)N(C)C(=O)[C@H](CC(C)C)NC(=O)[C@H](C)N(C)C(=O)[C@H]2CCCN2C(=O)[C@H](CC(C)C)NC(=O)[C@H]([C@@H](C)O)N(C)C1=O	< 0.32
CC(C)C[C@@H]1NC(=O)[C@@H]2CCCN2C(=O)[C@H]2CCCN2C(=O)[C@H](CC(C)C)NC(=O)[C@H](C)N(C)C(=O)[C@H](CC(C)C)NC(=O)[C@@H]2CCCN2C(=O)[C@H]2CCCN2C(=O)[C@H](CC(C)C)NC(=O)[C@H](C)N(C)C1=O	0.25
CC(C)C[C@@H]1NC(=O)[C@H]([C@@H](C)O)N(C)C(=O)[C@H]2CCCN2C(=O)[C@H](CC(C)C)NC(=O)[C@H](C)N(C)C(=O)[C@H](CC(C)C)NC(=O)[C@H](Cc2ccccc2)N(C)C(=O)[C@H]2CCCN2C(=O)[C@H](CC(C)C)NC(=O)[C@H](C)N(C)C1=O	50
CC(C)C[C@@H]1NC(=O)[C@H]([C@@H](C)O)N(C)C(=O)[C@H]2CCCN2C(=O)[C@H](CC(C)C)NC(=O)[C@H](C)N(C)C(=O)[C@H](CC(C)C)NC(=O)[C@H]([C@@H](C)O)N(C)C(=O)[C@H]2CCCN2C(=O)[C@H](CC(C)C)NC(=O)[C@H](C)N(C)C1=O	7.9
CC(C)C[C@@H]1NC(=O)[C@H](C)N(C)C(=O)[C@H]2CCCN2C(=O)[C@H](CC(C)C)NC(=O)[C@H](C)N(C)C(=O)[C@H]([C@@H](C)O)NC(=O)[C@H](C)N(C)C(=O)[C@H]2CCCN2C(=O)[C@H](CC(C)C)NC(=O)[C@H](C)N(C)C1=O	1.3

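Lipid, pH, incubation time, direction and concentration are not recorded in the data file. Other peptides of the study may be missing here. Peptides that the database sets to -10, its floor, are left out.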